Target: T1, GST-hBVR fusion protein, wild type (human biliverdin reductase fused to glutathione-S-transferase)
T1 chain: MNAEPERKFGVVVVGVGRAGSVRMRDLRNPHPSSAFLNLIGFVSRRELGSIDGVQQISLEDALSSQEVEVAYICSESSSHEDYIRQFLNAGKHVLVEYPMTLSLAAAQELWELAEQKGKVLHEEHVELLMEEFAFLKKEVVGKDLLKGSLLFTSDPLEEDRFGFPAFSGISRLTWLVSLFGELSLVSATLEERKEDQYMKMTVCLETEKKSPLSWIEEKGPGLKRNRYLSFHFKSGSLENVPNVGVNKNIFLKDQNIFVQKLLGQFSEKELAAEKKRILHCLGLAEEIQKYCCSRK

B1: Insulin receptor beta (IRK), 48 kDa cytoplasmic domain of the beta-subunit (protein)
chain: RKRQPDGPLGPLYASSNPEYLSASDVFPCSVYVPDEWEVSREKITLLRELGQGSFGMVYEGNARDIIKGEAETRVAVKTVNESASLRERIEFLNEASVMKGFTCHHVVRLLGVVSKGQPTLVVMELMAHGDLKSYLRSLRPEAENNPGRPPPTLQEMIQMAAEIADGMAYLNAKKFVHRDLAARNCMVAHDFTVKIGDFGMTRDIYETDYYRKGGKGLLPVRWMAPESLKDGVFTTSSDMWSFGVVLWEITSLAEQPYQGLSNEQVLKFVMDGGYLDQPDNCPERVTDLMRMCWQFNPKMRPTFLEIVNLLKDDLHPSFPEVSFFHSEENKAPESEELEMEFEDMENVPLDRSSHCQREEAGGRDGGSSLGFKRSYEEHIPYTHMNGGKKNGRILTLPRSNPS
  BVR reductase activity after in vitro phosphorylation by IRK: BVR phosphorylation by IRK in vitro increases BVR reductase activity

Source: US20090214627
